What was measured:
CLK4 = CLK4 (Mus musculus, UniProt O35493); assay: Recombinant protein kinase assay, CLK4
DYRK3 = molecular target: T1, DYRK3 (Homo sapiens, UniProt O43781); assay: Recombinant protein kinase assay, DYRK3
T1 sequence (O43781 1-588): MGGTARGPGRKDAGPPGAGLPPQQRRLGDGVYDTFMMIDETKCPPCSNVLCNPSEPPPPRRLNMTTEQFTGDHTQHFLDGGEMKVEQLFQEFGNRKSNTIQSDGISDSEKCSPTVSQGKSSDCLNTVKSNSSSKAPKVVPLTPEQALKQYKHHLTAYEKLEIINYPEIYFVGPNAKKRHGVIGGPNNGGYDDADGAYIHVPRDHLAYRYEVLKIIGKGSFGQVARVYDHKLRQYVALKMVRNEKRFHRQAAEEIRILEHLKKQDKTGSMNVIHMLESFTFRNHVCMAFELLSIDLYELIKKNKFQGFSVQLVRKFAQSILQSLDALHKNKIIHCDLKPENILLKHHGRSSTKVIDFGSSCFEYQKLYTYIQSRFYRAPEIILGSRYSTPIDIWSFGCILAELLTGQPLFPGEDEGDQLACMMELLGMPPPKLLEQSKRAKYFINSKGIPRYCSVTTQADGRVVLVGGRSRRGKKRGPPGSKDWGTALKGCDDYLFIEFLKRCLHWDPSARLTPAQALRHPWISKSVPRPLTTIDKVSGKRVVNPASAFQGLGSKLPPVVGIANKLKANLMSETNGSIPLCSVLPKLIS

Protein sequences, listed by entry. Tags and fused reporters are not part of them. Lines headed by an entry give the natural chain unless they say otherwise; changes in a name come on top.
UniProt O35493: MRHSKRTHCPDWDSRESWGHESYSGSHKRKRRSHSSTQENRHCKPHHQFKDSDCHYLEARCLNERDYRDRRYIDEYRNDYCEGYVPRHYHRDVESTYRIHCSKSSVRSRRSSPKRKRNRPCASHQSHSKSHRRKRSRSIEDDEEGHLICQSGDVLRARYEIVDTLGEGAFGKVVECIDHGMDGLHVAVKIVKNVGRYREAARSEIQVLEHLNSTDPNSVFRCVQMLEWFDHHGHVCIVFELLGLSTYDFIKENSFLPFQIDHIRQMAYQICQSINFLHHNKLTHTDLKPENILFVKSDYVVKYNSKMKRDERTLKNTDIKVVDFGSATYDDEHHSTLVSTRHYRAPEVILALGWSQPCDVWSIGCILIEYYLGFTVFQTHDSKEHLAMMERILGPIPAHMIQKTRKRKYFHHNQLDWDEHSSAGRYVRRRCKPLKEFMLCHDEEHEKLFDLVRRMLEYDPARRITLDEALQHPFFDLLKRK

`O=C1NC(Nc2ccccc2)=N/C1=C\c1ccc2c(c1)OCO2` [L41] gave an IC50 (CLK4) of 23 nM and an IC50 (DYRK3) of 230 nM.
